Data as given in patent publication US12691096B2, “Drug-controlled systems and uses thereof” (TRUSTEES OF BOSTON UNIVERSITY, priority 2020, dated 2026).

Key:
dNS3-Cre-PHI = dNS3-Cre-PHI (Hepatitis C virus genotype 1b, UniProt P26663, A1092G/F1173S/K1113A/P1112Q/S1165A); settings: catalytic NS3 S139A mutation (dNS3)
From the text: (§1) For Cre recombinase control in mammalian cells, live cells were gated in the same manner as above and gated for transfection by either a co-transfection marker of pmiRFP670-N1 or inter-plasmatic constitutive expression of iRFP670 under a separate constitutive promoter. Cells were further deemed as GFP positive if their fluorescence intensity was greater than or equal to the top 1% of non-transfected cells. Baseline activation of GFP positive cells was then subtracted using transfection marker only cells as baseline for all measurements.

[1] = target: asunaprevir inducible (AI) NS3 (Hepatitis C virus genotype 1b, UniProt P26663, S1148G/T1080A/V1062M); settings: asunaprevir (1 pM); flow cytometry 48 hours post-drug addition
From the text: To accomplish this, it was sought to make orthogonal inducible Cre recombinases.
as §1

C=C[C@@H]1C[C@]1(NC(=O)[C@@H]1C[C@@H](Oc2ncc(OC)c3ccc(Cl)cc23)CN1C(=O)[C@@H](NC(=O)OC(C)(C)C)C(C)(C)C)C(=O)NS(=O)(=O)C1CC1 [asunaprevir]
Effect of NS3 S139A mutation alone on drug induction of Cre (dNS3-Cre-PHI): retaining asunaprevir induction | Induction of Cre recombination, asunaprevir inducible (AI) construct [1]: strongly induced
